Assay results: patent US20200207989A1, “FLUORESCENT PROBE FOR ALDH3A1 DETECTION” (The University of Tokyo, priority 2016, published 2020)

By UniProt entry, the sequences of proteins in these tests, tags left out.
UniProt P30838, whole entry: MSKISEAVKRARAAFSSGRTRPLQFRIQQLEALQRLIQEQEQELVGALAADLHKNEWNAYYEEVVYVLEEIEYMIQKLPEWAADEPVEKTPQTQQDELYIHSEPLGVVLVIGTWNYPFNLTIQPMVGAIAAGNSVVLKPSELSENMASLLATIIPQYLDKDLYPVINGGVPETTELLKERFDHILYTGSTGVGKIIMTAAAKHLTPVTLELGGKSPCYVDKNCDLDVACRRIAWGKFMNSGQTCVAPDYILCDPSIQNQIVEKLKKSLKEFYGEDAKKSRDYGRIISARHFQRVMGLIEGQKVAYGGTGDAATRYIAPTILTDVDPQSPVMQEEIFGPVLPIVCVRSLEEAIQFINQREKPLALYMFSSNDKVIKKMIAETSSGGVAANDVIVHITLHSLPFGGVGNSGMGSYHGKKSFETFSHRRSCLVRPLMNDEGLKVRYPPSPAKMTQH
UniProt P00352, whole entry: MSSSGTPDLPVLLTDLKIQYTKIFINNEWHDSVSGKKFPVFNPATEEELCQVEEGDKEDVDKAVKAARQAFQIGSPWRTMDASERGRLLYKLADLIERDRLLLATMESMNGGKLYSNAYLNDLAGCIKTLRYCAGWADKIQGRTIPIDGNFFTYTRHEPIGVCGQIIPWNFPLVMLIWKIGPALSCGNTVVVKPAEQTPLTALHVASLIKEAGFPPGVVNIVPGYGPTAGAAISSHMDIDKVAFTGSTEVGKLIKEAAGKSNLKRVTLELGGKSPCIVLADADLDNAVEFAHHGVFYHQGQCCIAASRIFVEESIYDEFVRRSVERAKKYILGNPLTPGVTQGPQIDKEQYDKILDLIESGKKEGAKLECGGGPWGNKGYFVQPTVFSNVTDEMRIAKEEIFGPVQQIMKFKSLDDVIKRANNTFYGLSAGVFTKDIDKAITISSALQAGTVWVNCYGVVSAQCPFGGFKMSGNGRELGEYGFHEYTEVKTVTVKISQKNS

Key:
[1] = target: Human recombinant ALDH3A1 (Homo sapiens, UniProt P30838); assay: Reactivity of probes to recombinant ALDH3A1 (UPLC/MS/MS); settings: 10-100 nM ALDH, 10-80 μM compound, Tris buffer pH 7.5, 30 minutes at 37° C.; ◯/X not defined by a legend
ALDH1A1 = ALDH1A1 (Homo sapiens, UniProt P00352); assay: Kinetic characteristics (Michaelis-Menten Km, Kcat) with ALDH1A1; settings: five minutes at 37° C., Tris buffer pH 7.5
[2] = HPLC (LC/MS) retention time as measure of hydrophilicity / membrane permeability; settings: C18 column, 20% B 2.5 min, 20%-->100% B 5 min, 500 μL/min, neutral conditions, mean±SD of three tests

CC1=CC(C)=[N+]2C1=Cc1ccc(CCC(=O)NCC=O)n1[B-]2(F)F
Reactivity to ALDH3A1 [1]: showed no reactivity to ALDH3A1 | Kcat ALDH1A1 (ALDH1A1): 7.75 ± 6.28 s⁻¹ | Km (ALDH1A1; read-out: Km ALDH1A1): 161 µM | Retention Time, Aldehyde form [2]: in the lower 7 minutes | Retention Time, carboxylate (carboxylic acid form) [2]: 6.741 min | Retention Time, Aldehyde form ([2]; listed as ALDELFLUOR ®): 7.283 ± 0.003 min | Retention Time, carboxylate (carboxylic acid form) ([2]; listed as ALDELFLUOR ®): 6.741 ± 0.001 min
